Earlier results on 1 substance are cited in US12584131B2, “Methods of gene therapy” (OREGON HEALTH & SCIENCE UNIVERSITY, priority 2018, dated 2026).

For the data set, the system named is CYP enzymes.

For Retrorsine, the “Metabolizing CYP” value is “CYP3A4”.
